# Measured affinities in a library of Ab-14 heavy chain variants

Binding partner: SARS-CoV-2 spike HR2 peptide, sequence PDVDLGDISGINAS.

Parent: Ab-14, a human scFv built as VH, the linker GGGGSGGGGSGGGGS, VL. Only the CDRs of the heavy chain vary.
VH: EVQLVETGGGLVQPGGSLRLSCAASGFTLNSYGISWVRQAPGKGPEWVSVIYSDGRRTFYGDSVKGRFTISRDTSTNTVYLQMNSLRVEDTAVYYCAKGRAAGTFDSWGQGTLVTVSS
VL: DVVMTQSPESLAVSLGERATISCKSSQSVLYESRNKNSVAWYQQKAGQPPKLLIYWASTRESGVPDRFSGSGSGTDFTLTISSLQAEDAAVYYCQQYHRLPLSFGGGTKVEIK

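The variants were designed computationally from a first round of random CDR variants and then made and measured. Group labels follow the data file (Ctrl: baseline library sampled from a position-specific scoring matrix, with some repeated check sequences; Rand: our label for a block that the file lists under HC and that is probably the random mutants of the ten best first-round binders; En: ensemble of fine-tuned language models; GP: Gaussian process model; GPLM: also part of the Gaussian process libraries; HC: hill climbing; Gen: genetic algorithm; Gibbs: Gibbs sampling; a sequence that several methods proposed may carry one label only). The scFvs were displayed on barcoded MATa yeast, the peptide on MATalpha yeast. Binding brings cells together so that they mate, and sequencing counts the barcode pairs among the diploids. Each replicate has its own calibration line, from reference interactions of the BCL2 family. Mating was done six times.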

Changes read parent residue, position, new residue, counted from the first residue of the VH shown. Variants here have at most six changes. Each Kd is an estimate from the mating assay, the geometric mean of the replicates in which the pair was seen; lower is stronger. An entry "nd" has no value in the source: the pair was not observed among the diploids in any replicate. This suggests poor binding but is not conclusive. The authors averaged sequences with at least three values out of six and counted those with two or fewer as poor binders.

* S31E+G61T+A101T+D106F [GPLM_HC] = 120 nM (1 of 6 replicates; controls 0 of 18)
* T28S+F59M+G61T+R100Q [GPLM_Gen] = 4.7 nM (6 of 6 replicates; controls 0 of 18)
* T28D+F59Y+R100Q [GP_Gen] = 1.3 nM (6 of 6 replicates; controls 0 of 18)
* G61A+R100Q+A101L+S107D [GP_HC] = 2.7 nM (6 of 6 replicates; controls 0 of 18)
* R100M+A101N+S107T [GPLM_Gibbs] = 16 nM (6 of 6 replicates; controls 0 of 18)
* F27S+S31E+G61T+A101H [GP_HC] = nd (0 of 6 replicates; controls 0 of 18)
* T28S+G61A+S63R+R100Q [GPLM_Gen] = 7.9 nM (6 of 6 replicates; controls 1 of 18)
* S31E+G61S+R100Q+A101E+S107N [GP_HC] = nd (0 of 6 replicates; controls 0 of 18)
* G26L+G61S+D62P [Ctrl] = 31 nM (6 of 6 replicates; controls 2 of 18)
* G103C+F105N+S107M [Ctrl] = 14 nM (1 of 6 replicates; controls 0 of 18)
* G26K+T28K+G61K+A101T [GP_Gibbs] = nd (0 of 6 replicates; controls 1 of 18)
* G61Y+R100T [Ctrl] = nd (0 of 6 replicates; controls 0 of 18)
* G61S+S63R+R100Q+S107L [GP_Gibbs] = 230 nM (2 of 6 replicates; controls 0 of 18)
* T28D+S31E+S53A+G61V+R100E+S107Q [En_HC] = 260 pM (6 of 6 replicates; controls 0 of 18)
* T28D+G61Q+R100Q+A101T [GP_Gen] = 3.1 nM (6 of 6 replicates; controls 0 of 18)
* T28S+S31W+F59W+G61I [GP_HC] = nd (0 of 6 replicates; controls 0 of 18)
* T28C+S31D+F59W+G61I [GP_HC] = nd (0 of 6 replicates; controls 0 of 18)
* T28V+S31D+G61I [GPLM_HC] = 14 nM (2 of 6 replicates; controls 0 of 18)
* T28D+S31E+R100Q+A101F+F105K [Ctrl] = nd (0 of 6 replicates; controls 0 of 18)
* T28E+R56K+G61I+A101T [GP_Gen] = 8.5 nM (6 of 6 replicates; controls 0 of 18)
* R100D+A101V+S107T [GPLM_Gen] = 1.1 nM (6 of 6 replicates; controls 0 of 18)
* T28D+R56K+S63D+A101T [GP_Gen] = 680 pM (6 of 6 replicates; controls 1 of 18)
* N30P+S31Q+G61S+T104F [Rand] = 95 nM (4 of 6 replicates; controls 0 of 18)
* L29G+S31D+F59Y+G103L+D106I [Rand] = nd (0 of 6 replicates; controls 0 of 18)
* T28D+G61I+R100Q+S107D [GP_Gen] = 23 nM (6 of 6 replicates; controls 0 of 18)
* T28E+G61A+A101T+S107F [GPLM_Gen] = 1.0 nM (6 of 6 replicates; controls 0 of 18)
* T28S+S31E+S63A+A101T+S107N [GP_Gibbs] = 780 pM (6 of 6 replicates; controls 0 of 18)
* T28D+G61A+A101T+S107K [GPLM_Gen] = 4.3 nM (1 of 6 replicates; controls 0 of 18)
* T28H+G61S+R100Q+A101E [GP_Gen] = 1.4 nM (6 of 6 replicates; controls 0 of 18)
* T28S+F59M+A101T [GPLM_Gen] = 6.5 nM (6 of 6 replicates; controls 0 of 18)
* A101Y+A102K [Ctrl] = 60 µM (1 of 6 replicates; controls 0 of 18)
* G26K+S31E+A101T [GPLM_Gen] = 33 nM (5 of 6 replicates; controls 1 of 18)
* T28D+S31T+R100E [GPLM_Gibbs] = 2.5 nM (6 of 6 replicates; controls 0 of 18)
* R56K+S63D+R100E+S107T [GPLM_Gibbs] = 3.5 nM (6 of 6 replicates; controls 2 of 18)
* S31E+S53A+D106T [GP_HC] = 8.2 nM (6 of 6 replicates; controls 1 of 18)
* T28P+D106L [Ctrl] = 2.0 nM (6 of 6 replicates; controls 0 of 18)
* R56M+R100F+A101V+A102T [Ctrl] = nd (0 of 6 replicates; controls 0 of 18)
* S31Q+G61A+S107T [GP_HC] = 900 pM (6 of 6 replicates; controls 0 of 18)
* T28A+S63D+T104R [Ctrl] = nd (0 of 6 replicates; controls 0 of 18)
* L29I+R100Q+S107T [Ctrl] = 31 nM (5 of 6 replicates; controls 0 of 18)
* S53A+F59T+V64F+F105N+D106K [Rand] = 35 nM (1 of 6 replicates; controls 0 of 18)

The 5 strongest on average among those seen in every replicate, once more:

* T28D+S31E+S53A+G61V+R100E+S107Q [En_HC]: 260 pM (6 of 6 replicates; controls 0 of 18)
* T28D+R56K+S63D+A101T [GP_Gen]: 680 pM (6 of 6 replicates; controls 1 of 18)
* T28S+S31E+S63A+A101T+S107N [GP_Gibbs]: 780 pM (6 of 6 replicates; controls 0 of 18)
* S31Q+G61A+S107T [GP_HC]: 900 pM (6 of 6 replicates; controls 0 of 18)
* T28E+G61A+A101T+S107F [GPLM_Gen]: 1.0 nM (6 of 6 replicates; controls 0 of 18)

A sequence measured in both rounds can read differently, since the two assays cover different ranges. Nonspecific signal, from three strains lacking the peptide, appeared in 1% of pairings of all heavy chain designs, centred on 120 nM (5% of these signals below 7.0 nM); values are not corrected for it. Also given: how often the same scFv was detected with the empty control strains.

Values reported by Li et al. 2023, doi:10.1038/s41467-023-39022-2 (FLAb copy).